# Water solubility values, as collected for the OPERA models

Water solubility is log10 of mol/L, nominally at 25 °C; higher is more soluble.

structure (SMILES) | log solubility (log10 mol/L)
CC(C)(c1ccc(O)cc1)c1cccc(C(C)(C)c2ccc(O)cc2)c1 | -6.239
Cc1cc(N=Nc2ccccc2C)ccc1N | -4.51
CCCCC(CC)C(=O)OOC(C)(C)CC (stereo not given) | -4.117
O=C(CCCN1CCC(n2c(=O)[nH]c3ccccc32)CC1)c1ccc(F)cc1 | -4.28
O=[N+]([O-])c1ccc(CBr)cc1 | -3.474
CO/C=C(/C(=O)OC)c1ccccc1COc1cccc(C(F)(F)F)n1 | -5.07
CCc1cc(C)cc(CC)c1-c1c(OC(=O)C(C)(C)C)n2n(c1=O)CCOCC2 | -3.26
N#CCCN1C(=O)C(O)N=C(c2ccccc2F)c2cc(Cl)ccc21 (stereo not given) | -4.474
COP(=O)(OC)SCCSC | -2.86
NCCc1ccc(O)cc1 | -1.12
CO[C@H]1C[C@H](O[C@H]2CC[C@]3(C)[C@H]4CC[C@]5(C)[C@@H](C6=CC(=O)OC6)CC[C@]5(O)[C@@H]4CC[C@]3(O)C2)O[C@H](C)[C@H]1O[C@@H]1O[C@H](CO)[C@@H](O)[C@H](O)[C@H]1O | -1.903
Clc1cc2c(oc3cc(Cl)c(Cl)c(Cl)c32)c(Cl)c1Cl | -10.33
CCOC(=O)/C=C(C)/C=C/CC(C)CCCC(C)C (stereo partly drawn) | -5.125
CCS(=O)(=O)Oc1ccc2c(c1)C(C)(C)CO2 | -2.991
Nc1cccc(P(=O)(O)O)c1 | -1.605
CCc1nn(C)c(C(=O)NCc2ccc(Oc3ccc(C)cc3)cc2)c1Cl | -6.64
C[C@H]1CC(=O)C[C@@H]2CC[C@H]3[C@@H]4CC[C@H](O)[C@@]4(C)CC[C@@H]3[C@]21C | -5.006
COc1ccc(C(OC[C@H]2O[C@@H](n3cc(C)c(=O)[nH]c3=O)C[C@@H]2OP(OCCC#N)N(C(C)C)C(C)C)(c2ccccc2)c2ccc(OC)cc2)cc1 (some centres not stated) | -6.164
CCCCCCOP(=O)(OCCCCCC)OCCCCCC | -6.147
FC(F)(F)/C=C/Cl | -1.837
CC(C)CCC1(C)C(=O)NC(=O)NC1=O | -2.424
CCCCCCC1(CC)C(=O)NC(=O)NC1=O | -3.05
CCOP(=S)(OCC)SCCl | -3.59
CO[C@]12C[C@@H](CO)CN(C)[C@@H]1Cc1c[nH]c3cccc2c13 | -2.813
O=C([O-])C(Cl)(Cl)Cl.[Na+] | -0.189
C[C@]12CCC3=C4CCC(=O)C=C4CC[C@H]3[C@@H]1CC[C@@H]2O | -3.71
C[C@@H](CO)NC(=O)[C@@H]1C=C2c3cccc4[nH]cc(c34)C[C@H]2N(C)C1 | -3.006
COC1=CC=C2[C@H]3Cc4ccc(OC)c5c4[C@@]2(CCN3C)[C@H]1O5 | -2.66
CCSC(C)CC1CC(=O)C(/C(CC)=N/OC/C=C/Cl)=C(O)C1 (stereo partly drawn) | -1.821
c1ccc(-c2ncc[nH]2)cc1 | -1.889
CCc1cc(Cc2cc(CC)c(N)c(CC)c2Cl)c(Cl)c(CC)c1N | -7.278
CC(C)(C)C1CCC(OC(=O)OOC(=O)OC2CCC(C(C)(C)C)CC2)CC1 (stereo not given) | -8.822
N=c1nc(Nc2nc(=N)[nH]c(=N)[nH]2)[nH]c(=N)[nH]1 | -4.332
CNC | 1.56
COCCOC(=O)C(C#N)(C(=O)c1ccccc1C(F)(F)F)c1ccc(C(C)(C)C)cc1 (stereo not given) | -7.2
CCC(S(=O)(=O)CC)S(=O)(=O)CC | -1.461

The last 2 entries again:

| structure (SMILES) | log solubility (log10 mol/L) |
|---|---|
| COCCOC(=O)C(C#N)(C(=O)c1ccccc1C(F)(F)F)c1ccc(C(C)(C)C)cc1 (stereo not given) | -7.2 |
| CCC(S(=O)(=O)CC)S(=O)(=O)CC | -1.461 |

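The OPERA project collected these measurements from public sources as training and test data for property models. One number stands for a compound and property, with no spread given. How each value was measured is not recorded, so precision varies. A value may pool stereoisomers or salt forms, and the file does not say which form was measured. Some upstream entries may be estimates or bounds without being marked so.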

Data: OPERA 2.9 data sets, kmansouri/OPERA on GitHub.